Laboratory results reported in PMC6941357, “An in vitro toolbox to accelerate anti-malarial drug discovery and development” (Malaria Journal, 2020).

Sequences of proteins named here, by UniProt entry; tags and fusion partners are left off.
UniProt P11712, whole entry: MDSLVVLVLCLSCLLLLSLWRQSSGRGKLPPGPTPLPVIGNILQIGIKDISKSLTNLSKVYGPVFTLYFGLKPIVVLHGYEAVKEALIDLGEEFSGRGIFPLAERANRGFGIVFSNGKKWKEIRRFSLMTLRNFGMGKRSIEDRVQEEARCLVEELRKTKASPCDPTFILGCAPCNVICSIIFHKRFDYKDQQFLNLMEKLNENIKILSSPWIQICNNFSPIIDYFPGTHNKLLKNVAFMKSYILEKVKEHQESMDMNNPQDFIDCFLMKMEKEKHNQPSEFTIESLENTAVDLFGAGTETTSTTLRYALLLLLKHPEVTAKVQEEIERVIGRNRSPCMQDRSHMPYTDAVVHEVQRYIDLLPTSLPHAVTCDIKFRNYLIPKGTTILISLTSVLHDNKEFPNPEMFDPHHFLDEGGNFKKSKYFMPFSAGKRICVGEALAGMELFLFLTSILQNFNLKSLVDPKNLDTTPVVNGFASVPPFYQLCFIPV
UniProt P33261, whole entry: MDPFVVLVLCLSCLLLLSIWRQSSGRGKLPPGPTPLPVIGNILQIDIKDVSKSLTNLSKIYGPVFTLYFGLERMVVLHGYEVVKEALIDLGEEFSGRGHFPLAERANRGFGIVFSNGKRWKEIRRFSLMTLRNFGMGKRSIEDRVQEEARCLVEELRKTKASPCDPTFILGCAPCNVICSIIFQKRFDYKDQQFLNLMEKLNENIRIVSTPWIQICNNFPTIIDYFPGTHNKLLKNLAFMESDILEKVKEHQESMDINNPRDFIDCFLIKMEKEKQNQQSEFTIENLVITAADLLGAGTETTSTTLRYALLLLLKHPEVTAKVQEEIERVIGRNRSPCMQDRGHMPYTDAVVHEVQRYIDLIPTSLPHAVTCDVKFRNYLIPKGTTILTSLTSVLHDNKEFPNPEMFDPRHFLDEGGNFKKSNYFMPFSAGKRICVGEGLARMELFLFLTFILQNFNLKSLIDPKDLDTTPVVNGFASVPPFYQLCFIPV
UniProt P10635, whole entry: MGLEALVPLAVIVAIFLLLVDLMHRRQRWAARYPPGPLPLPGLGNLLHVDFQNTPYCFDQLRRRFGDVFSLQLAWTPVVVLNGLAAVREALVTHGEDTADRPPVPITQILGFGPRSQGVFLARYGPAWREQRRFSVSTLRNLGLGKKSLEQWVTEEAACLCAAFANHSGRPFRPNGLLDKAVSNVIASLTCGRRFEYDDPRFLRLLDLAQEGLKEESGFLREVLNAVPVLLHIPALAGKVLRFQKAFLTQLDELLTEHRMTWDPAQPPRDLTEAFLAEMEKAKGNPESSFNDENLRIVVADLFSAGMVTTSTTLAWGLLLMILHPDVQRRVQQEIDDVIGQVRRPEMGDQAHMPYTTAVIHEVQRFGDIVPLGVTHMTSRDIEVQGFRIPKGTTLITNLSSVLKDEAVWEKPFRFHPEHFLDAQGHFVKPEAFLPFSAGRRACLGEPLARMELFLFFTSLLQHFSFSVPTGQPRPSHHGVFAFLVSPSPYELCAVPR

Columns and labels:
[1] = Bidirectional permeability across Caco-2 cell monolayers; conditions: human
[2] = target: CYP2C9 (Homo sapiens, UniProt P11712); conditions: microsomes
[3] = target: CYP2C19 (Homo sapiens, UniProt P33261); conditions: microsomes
[4] = target: CYP2D6 (Homo sapiens, UniProt P10635); conditions: microsomes
[5] = Blood to plasma partitioning; assay type: in vitro ADME; conditions: human, whole blood, pH 7.4, human whole blood, 37 °C; read-out: B/P (whole blood to plasma partitioning ratio)

## CC(C)(N)CNC(=O)C[C@H]1CC[C@]2(CC1)OO[C@]1(O2)C2CC3CC(C2)CC1C3 [OZ277, Arterolane]
[1]
  efflux ratio: 1.7
[2]
  CYP2C9 % inhibition at max conc: nmi
[3]
  CYP2C19 % inhibition at max conc: nmi
[4]
  CYP2D6 % inhibition at max conc: nmi
[5]
  blood plasma ratio at 1000 ng/mL: 1.1 ± 0.1
